Experimental findings from publication PMC4848466, “Insights into the activation mechanism of class I HDAC complexes by inositol phosphates” (Nature Communications, 2016) are described below.

The chains behind the UniProt entries cited, without tags or fusion partners. Where a name states a change or a piece, a line headed by the entry shows the natural chain unless it says otherwise. Residues count along the entry.
UniProt O15379: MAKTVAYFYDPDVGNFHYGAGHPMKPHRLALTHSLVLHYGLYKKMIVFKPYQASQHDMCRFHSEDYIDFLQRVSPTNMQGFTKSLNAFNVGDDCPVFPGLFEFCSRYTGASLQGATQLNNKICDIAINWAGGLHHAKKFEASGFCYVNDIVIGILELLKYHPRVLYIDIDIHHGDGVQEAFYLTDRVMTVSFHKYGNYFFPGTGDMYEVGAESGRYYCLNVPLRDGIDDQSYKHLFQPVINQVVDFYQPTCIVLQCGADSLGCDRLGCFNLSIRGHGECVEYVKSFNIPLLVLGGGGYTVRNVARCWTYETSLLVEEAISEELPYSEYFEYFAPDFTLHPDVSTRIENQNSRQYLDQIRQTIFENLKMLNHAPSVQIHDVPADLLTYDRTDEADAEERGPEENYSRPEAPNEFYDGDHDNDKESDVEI
UniProt Q9Y618, 350-480: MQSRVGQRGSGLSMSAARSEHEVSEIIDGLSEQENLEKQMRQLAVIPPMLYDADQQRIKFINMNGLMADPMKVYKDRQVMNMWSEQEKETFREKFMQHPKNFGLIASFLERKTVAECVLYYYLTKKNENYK

SMILES strings stand for the structures.

This experiment deals with HDAC3:SMRT (Homo sapiens, UniProt O15379+Q9Y618). Kind of experiment: Fluorescence anisotropy direct binding of 2-FAM-Ins(1,3,4,5,6)P5. In general terms: Polarisation of emitted light reports the rotation of a fluorescent probe.

`O=C(CCCCCCC(=O)Nc1ccccc1)NO` [SAHA]: the “enhancement of the binding of 2-FAM-Ins(1,3,4,5,6)P5 to the allosteric site by inhibitor” value is “threefold enhancement”.
